Molecular target: PRC2-EED-I363M (Homo sapiens, UniProt O75530+Q15910, I363M)
Experiment: Fluorescence polarization binding assay
Details: 40 nM labelled ligand; top PRC2-EED-I363M concentration 2 µM
Protocol: The binding experiments were performed in a total volume of 10 μl binding buffer (20 mM Tris pH 8.0 supplemented with 0.01% Triton X-100 and 5 mM DTT) in 384-well black polypropylene PCR plates (Axygen, Cat. PCR-384-BK). The binding of FAM-labelled ligand, 8 (UNC6419) to WT- and EED-I363M mutant trimeric PRC2 complexes was evaluated by monitoring the fluorescence polarization (FP) signal in the presence of 40 nM FL-UNC6419. FP was performed using a Biotek Synergy 4 after 30 minutes incubation at ambient temperature using excitation and emission wavelengths of 485 nm and 528 nm, respectively.
PRC2-WT (µM) PRC2-WT (µM) PRC2-WT (µM) PRC2-W T (µM) PRC2-WT (µM)
PRC2-Mutant (µM) PRC2-Mutant (µM) PRC2-Mutant (µM) PRC2-Mutant (µM) PRC2-Mutant (µM)
Supplementary Figure S8. Evaluating binding of 8 (UNC6419) to WT- and EED-I363M mutant
trimeric PRC2 complexes. Binding of (A) 8, a FAM-labelled ligand, to both WT and mutant
trimeric PRC2 complexes were assessed by (B) monitoring the changes in fluorescence
polarization signal under specified conditions. Increase in fluorescence polarization signal was
observed when increasing concentrations of wild-type, but not mutant, PRC2 (EED/EZH2/SUZ12)
was tested in the presence of 40 nM of 8. All Kd values are presented in the above table. Assays
were performed in triplicate in 20 mM Tris-HCl pH 8.0, 5 mM DTT, 0.01% Triton X-100. Data […]

By UniProt entry, the sequences of proteins in these tests, tags left out. Residues count along the entry.
UniProt O75530, whole entry I363M: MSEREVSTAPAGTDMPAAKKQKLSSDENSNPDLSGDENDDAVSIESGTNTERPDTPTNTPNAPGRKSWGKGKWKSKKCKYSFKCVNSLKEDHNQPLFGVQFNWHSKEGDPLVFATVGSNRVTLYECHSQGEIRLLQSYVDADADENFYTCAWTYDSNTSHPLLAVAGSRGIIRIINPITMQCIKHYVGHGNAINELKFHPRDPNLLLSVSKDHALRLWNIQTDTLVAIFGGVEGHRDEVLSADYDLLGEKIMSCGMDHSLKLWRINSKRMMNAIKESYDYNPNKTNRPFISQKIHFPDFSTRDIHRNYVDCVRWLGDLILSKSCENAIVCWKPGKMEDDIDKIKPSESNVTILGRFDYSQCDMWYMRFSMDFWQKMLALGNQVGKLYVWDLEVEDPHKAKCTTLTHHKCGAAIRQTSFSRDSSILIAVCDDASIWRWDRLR
UniProt Q15910, 1-751 isoform 2: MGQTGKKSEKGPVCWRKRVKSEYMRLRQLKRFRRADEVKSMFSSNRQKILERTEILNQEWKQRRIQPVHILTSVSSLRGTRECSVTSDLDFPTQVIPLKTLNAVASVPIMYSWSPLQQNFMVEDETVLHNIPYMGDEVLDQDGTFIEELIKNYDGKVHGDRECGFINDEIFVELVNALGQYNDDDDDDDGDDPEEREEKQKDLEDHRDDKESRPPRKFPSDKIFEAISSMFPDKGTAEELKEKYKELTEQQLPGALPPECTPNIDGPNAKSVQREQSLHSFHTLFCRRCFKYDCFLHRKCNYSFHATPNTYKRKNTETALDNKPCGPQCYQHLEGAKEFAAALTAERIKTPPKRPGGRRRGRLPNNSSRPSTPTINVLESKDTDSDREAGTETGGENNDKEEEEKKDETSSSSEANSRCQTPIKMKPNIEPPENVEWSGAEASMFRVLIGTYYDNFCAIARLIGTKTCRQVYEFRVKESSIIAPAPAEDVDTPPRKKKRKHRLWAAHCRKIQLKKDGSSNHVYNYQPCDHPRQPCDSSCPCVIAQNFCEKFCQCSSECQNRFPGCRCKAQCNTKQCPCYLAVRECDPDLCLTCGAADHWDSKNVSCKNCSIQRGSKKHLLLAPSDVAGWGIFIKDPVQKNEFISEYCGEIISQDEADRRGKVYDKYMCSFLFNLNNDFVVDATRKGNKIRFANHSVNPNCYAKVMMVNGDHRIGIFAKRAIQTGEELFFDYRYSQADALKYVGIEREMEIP
UniProt Q15022, whole entry partner: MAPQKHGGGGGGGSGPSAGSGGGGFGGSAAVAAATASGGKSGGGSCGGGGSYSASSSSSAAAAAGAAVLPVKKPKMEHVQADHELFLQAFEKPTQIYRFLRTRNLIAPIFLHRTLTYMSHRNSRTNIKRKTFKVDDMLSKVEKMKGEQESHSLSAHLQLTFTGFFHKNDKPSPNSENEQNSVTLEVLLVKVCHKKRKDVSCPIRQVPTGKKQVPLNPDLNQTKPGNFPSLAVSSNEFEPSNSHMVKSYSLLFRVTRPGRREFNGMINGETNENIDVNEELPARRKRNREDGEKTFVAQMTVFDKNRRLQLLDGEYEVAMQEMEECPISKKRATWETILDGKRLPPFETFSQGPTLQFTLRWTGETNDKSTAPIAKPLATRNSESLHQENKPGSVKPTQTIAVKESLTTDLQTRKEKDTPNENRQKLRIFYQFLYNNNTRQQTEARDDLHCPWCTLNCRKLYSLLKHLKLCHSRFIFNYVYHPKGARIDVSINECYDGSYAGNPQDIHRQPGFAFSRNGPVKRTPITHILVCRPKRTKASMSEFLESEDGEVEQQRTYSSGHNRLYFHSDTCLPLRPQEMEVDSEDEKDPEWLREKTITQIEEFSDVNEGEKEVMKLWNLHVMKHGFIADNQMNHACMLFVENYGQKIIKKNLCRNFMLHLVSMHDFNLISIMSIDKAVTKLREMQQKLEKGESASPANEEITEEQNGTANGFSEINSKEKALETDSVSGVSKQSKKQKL

SMILES: CC(C)C[C@H](NC(=O)[C@H](Cc1ccccc1)NC(=O)[C@H](CCCC[N+](C)(C)C)NC(=O)[C@H](CCCCN)NC(=O)[C@@H]1CCCN1)C(=O)NCCC(=O)NCCC(=O)N(CC(N)=O)Cc1cn(CCCNC(=O)c2ccc(-c3c4ccc(=O)cc-4oc4cc(O)ccc34)c(C(=O)O)c2)nn1
- binding to PRC2-EED-I363M: no binding was detected
